Reference: patent publication US9119808B1, “Treating neurodegenerative diseases with GGA or a derivative thereof” (COYOTE PHARMACEUTICALS, INC., priority 2012, dated 2015)

Tested on: SOD1 mouse model of ALS
Assay: SOD1 mouse model of ALS: survival and cat-walk gait (Assay 4)
Format: in vivo
Details: daily treatments, N=16/treatment
Method: Analyses were conducted using PROC LIFEREG in SAS.
Additionally, three neurological function outcomes were chosen for analysis from those measured on a ‘cat-walk’ at irregular intervals over the duration of the study; stride length (cm), run duration (s), and swing speed (cm/s).
This non-random censoring of the treatment group data precluded using standard comparative statistical methods such as the t-test due the unverifiable compliance of the remaining data with required statistical test assumptions. Consequently, a Monte Carlo estimate of the p-value of the treatment differences was constructed using the bootstrap method.
Survival studies and behavioral tests will be performed in the SOD1 G93A model of ALS. This transgenic mouse harbors a point mutation (G93A), found in familial ALS, in the gene encoding for superoxide dismutase 1 (SOD1). This very well characterized mouse model is widely used in ALS research. […] Motor neuron death in the ventral horn of the spinal cord and loss of myelinated axons in the ventral motor roots lead to paralysis and muscle wasting. Mice initially develop normally and gain weight until approximately 100 days of age. […] To rigorously test the efficacy of candidates in this mouse model, neurological scores are monitored, and motor scores, life span, body weight and mice tested in a battery of behavioral paradigms suitable for motor assessment.

Nc1nc2ccc(OC(F)(F)F)cc2s1 [riluzole, reference compound]
Increase over vehicle (median survival time): 6%
